Key:
[1] = system: auditory brainstem response (ABR) threshold / hearing; settings: for ototoxicity (summary of the in vivo studies): in vivo studies disclosed herein; for ABR threshold, sound pressure (decibels): male rats, nine i.p. injections over nine days at 39.6, 59.4 or 79.2 mg/kg, ABR on day 25 vs pre-injection, 8, 16 and 32 kHz
[2] = system: serum creatinine / kidney function; settings: rats of Examples 1 and 2; 39.6, 59.4 or 79.2 mg/kg i.p.; experimental days 5, 9 and 25

ABR threshold, sound pressure (decibels) [1]	Substance	ototoxicity (summary of the in vivo studies) [1]	serum creatinine levels relative to saline control [2]
increased significantly	C-2 gentamicin	increased ototoxicity relative to native gentamicin	did not significantly affect serum creatinine levels
did not significantly increase	C-2a gentamicin	no significant ototoxicity	did not significantly affect serum creatinine levels

— patent US20170218005A1, “COMPOSITIONS AND METHODS RELATED TO GENTAMICIN” (La Jolla Pharmaceutical Company, priority 2016, published 2017)
